Chains of the proteins cited; added tags and fusions are not shown.
UniProt P05177, whole entry: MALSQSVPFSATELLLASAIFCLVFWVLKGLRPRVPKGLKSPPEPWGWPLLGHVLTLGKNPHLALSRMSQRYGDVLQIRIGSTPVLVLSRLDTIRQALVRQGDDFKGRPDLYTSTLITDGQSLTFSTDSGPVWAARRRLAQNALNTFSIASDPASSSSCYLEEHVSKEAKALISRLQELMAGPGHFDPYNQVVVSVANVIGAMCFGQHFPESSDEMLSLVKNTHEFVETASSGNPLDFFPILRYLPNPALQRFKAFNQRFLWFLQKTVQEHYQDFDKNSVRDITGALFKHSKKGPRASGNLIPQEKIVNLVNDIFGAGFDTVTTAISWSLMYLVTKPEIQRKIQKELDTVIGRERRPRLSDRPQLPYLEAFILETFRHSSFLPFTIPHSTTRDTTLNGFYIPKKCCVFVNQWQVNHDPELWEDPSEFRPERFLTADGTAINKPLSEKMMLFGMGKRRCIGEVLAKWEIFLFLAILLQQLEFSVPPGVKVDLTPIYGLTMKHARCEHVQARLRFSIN
UniProt P11712, whole entry: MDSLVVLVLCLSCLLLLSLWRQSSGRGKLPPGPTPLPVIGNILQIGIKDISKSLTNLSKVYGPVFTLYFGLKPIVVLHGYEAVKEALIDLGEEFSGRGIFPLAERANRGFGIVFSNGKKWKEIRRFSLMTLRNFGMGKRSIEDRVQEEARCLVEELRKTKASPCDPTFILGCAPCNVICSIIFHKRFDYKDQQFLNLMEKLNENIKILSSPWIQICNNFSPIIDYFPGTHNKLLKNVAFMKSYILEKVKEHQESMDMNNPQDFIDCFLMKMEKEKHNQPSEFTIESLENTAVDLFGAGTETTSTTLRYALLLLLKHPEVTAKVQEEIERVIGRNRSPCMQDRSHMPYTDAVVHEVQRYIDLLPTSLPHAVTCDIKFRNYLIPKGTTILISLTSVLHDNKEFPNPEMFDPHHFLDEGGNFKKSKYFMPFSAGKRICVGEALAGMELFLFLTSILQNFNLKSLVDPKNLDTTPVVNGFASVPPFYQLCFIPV
UniProt P33261, whole entry: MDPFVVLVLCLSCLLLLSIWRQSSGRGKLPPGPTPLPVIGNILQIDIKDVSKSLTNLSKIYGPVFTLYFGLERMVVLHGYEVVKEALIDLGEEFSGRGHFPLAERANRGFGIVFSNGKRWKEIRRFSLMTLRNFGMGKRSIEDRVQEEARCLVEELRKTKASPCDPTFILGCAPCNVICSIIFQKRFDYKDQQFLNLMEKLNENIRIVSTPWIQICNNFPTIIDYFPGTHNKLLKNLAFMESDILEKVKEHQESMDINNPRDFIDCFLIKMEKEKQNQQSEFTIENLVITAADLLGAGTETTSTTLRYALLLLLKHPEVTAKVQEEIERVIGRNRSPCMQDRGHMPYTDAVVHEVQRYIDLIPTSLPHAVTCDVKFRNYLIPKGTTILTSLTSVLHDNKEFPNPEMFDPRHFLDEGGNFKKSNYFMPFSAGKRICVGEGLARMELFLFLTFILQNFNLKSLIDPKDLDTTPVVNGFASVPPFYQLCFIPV
UniProt P10635, whole entry: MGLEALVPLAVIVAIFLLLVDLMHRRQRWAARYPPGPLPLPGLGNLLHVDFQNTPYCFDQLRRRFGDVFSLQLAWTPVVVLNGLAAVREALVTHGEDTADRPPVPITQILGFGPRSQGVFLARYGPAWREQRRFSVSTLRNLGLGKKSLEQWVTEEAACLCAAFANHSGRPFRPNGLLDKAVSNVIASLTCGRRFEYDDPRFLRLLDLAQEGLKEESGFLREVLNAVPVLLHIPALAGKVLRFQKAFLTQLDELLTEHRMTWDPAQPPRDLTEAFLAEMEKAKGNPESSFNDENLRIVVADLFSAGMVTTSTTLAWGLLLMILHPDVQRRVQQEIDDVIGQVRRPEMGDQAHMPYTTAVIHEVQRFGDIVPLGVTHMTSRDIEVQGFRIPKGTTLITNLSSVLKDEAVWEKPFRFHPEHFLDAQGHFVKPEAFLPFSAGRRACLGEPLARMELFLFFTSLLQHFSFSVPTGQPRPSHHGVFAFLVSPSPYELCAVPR
UniProt P08684, whole entry: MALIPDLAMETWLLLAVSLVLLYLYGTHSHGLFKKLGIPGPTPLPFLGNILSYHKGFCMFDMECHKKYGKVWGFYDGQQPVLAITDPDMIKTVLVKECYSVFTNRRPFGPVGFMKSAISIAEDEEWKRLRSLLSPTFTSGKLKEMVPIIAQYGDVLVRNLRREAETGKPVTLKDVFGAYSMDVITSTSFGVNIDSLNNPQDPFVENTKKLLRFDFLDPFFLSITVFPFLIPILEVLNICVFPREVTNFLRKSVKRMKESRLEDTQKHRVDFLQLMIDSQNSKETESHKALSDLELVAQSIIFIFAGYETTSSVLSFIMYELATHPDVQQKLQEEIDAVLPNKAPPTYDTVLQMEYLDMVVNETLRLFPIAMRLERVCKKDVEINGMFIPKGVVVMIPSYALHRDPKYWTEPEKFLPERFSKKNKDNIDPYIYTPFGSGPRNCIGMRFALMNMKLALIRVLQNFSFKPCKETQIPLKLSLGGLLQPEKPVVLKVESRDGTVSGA

In patent US20140235626A1, “PYRIDINE DERIVATIVES AND A PHARMACEUTICAL COMPOSITION FOR INHIBITING BACE1 CONTAINING THEM” (SHIONOGI & CO., LTD., priority 2011, published 2014):

Assays:
CYP1A2 = CYP1A2 (Homo sapiens, UniProt P05177); experiment: CYP inhibition test (7-ethoxyresorufin O-deethylation); conditions: read-out: IC50 CYP1A2; pooled human liver microsomes, 0.5 μmol/L ethoxyresorufin, 15 minutes, 37° C.; tested form: tartrate
From the text: (§1) The CYP inhibition test is a test to assess the inhibitory effect of a compound of the present invention towards typical substrate metabolism reactions on CYP enzymes in human liver microsomes. The marker reactions on human main five CYP enzymes (CYP1A2, 2C9, 2C19, 2D6, and 3A4) were used as follows; 7-ethoxyresorufin O-deethylation (CYP1A2), tolbutamide methyl-hydroxylation (CYP2C9), mephenyloin 4′-hydroxylation (CYP2C19), dextromethorphan O-demethylation (CYP2D6), and terfenedine hydroxylation (CYP3A4). The commercially available pooled human liver microsomes were used as an enzyme resource. […]
(§2) Five kinds of substrates, human liver microsomes, and a compound solution of the present invention in 50 mmol/L Hepes buffer were added to a 96-well plate at the composition as described above as a reaction solution. […] After the centrifugation at 3000 rpm for 15 minutes, resorufin (CYP1A2 metabolite) in the supernatant was quantified by a fluorescent plate reader, and hydroxytolbutamide (CYP2C9 metabolite), 4′-hydroxymephenyloin (CYP2C19 metabolite), dextrorphan (CYP2D6 metabolite), and terfenadine alcohol metabolite (CYP3A4 metabolite) in the supernatant were quantified by LC/MS/MS. […]

CYP2C9 = CYP2C9 (Homo sapiens, UniProt P11712); experiment: CYP inhibition test (tolbutamide methyl-hydroxylation); conditions: read-out: IC50 CYP2C9; pooled human liver microsomes, 100 μmol/L tolbutamide, 15 minutes, 37° C.; tested form: tartrate
From the text: as §1, §2

CYP2C19 = CYP2C19 (Homo sapiens, UniProt P33261); experiment: CYP inhibition test (mephenyloin 4'-hydroxylation); conditions: read-out: IC50 CYP2C19; pooled human liver microsomes, 50 μmol/L S-mephenyloin, 15 minutes, 37° C.; tested form: tartrate
From the text: as §1, §2

CYP2D6 = CYP2D6 (Homo sapiens, UniProt P10635); experiment: CYP inhibition test (dextromethorphan O-demethylation); conditions: read-out: IC50 CYP2D6; pooled human liver microsomes, 5 μmol/L dextromethorphan, 15 minutes, 37° C.; tested form: tartrate
From the text: as §1, §2

CYP3A4 = CYP3A4 (Homo sapiens, UniProt P08684); experiment: CYP inhibition test (terfenedine hydroxylation); conditions: read-out: IC50 CYP3A4; pooled human liver microsomes, 1 μmol/L terfenedine, 15 minutes, 37° C.; tested form: tartrate
From the text: as §1, §2

Measured: IC50

C[C@@]1(c2cc(NC(=O)c3ccc(C#N)cn3)ccn2)C=CSC(N)=N1.O=C(O)C(O)C(O)C(=O)O [Compound I-10]
> 20 µM: all assays above
